Source: ChEMBL document CHEMBL4732187, “Tetrahydroindazole inhibitors of CDK2/cyclin complexes” (Eur J Med Chem, 2021)

Assays:
[1] = Apparent permeability across apical to basolateral side in MDCK cells at 1 uM after 2 hrs by LC-MS/MS analysis; format: ADME, cell-based, Canis lupus familiaris; details: dog
In short: (§1)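 MDCK monolayers were washed twice with pre-warmed HBSS (10 mM HEPES, pH 7.4) and equilibrated for 30 min at 37 °C. Compound at 1 μM in HBSS (0.5% DMSO final) was added to the apical or the basolateral donor side. After 2 h at 37 °C, donor and receiver samples were quenched in cold methanol with internal standards and analysed by LC-MS/MS. Runs were in duplicate; 100 μM Lucifer Yellow checked monolayer integrity.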

[2] = Apparent permeability across basolateral to apical side in MDCK cells at 1 uM after 2 hrs by LC-MS/MS analysis; format: ADME, cell-based, Canis lupus familiaris; details: dog; in short: as §1

Papp A→B at 2 h, 1 µM [1]	Papp B→A at 2 h, 1 µM [2]	SMILES
76.9 nm/s	65 nm/s	Cc1ccc(NC(=O)c2ccc(CN3CCN(C)CC3)cc2)cc1Nc1nccc(-c2cccnc2)n1 [IMATINIB]
10.8 nm/s	54.1 nm/s	C[C@H]1O[C@@H](O[C@H]2[C@@H](O)C[C@H](O[C@H]3[C@@H](O)C[C@H](O[C@H]4CC[C@@]5(C)[C@H](CC[C@@H]6[C@@H]5C[C@@H](O)[C@]5(C)[C@@H](C7=CC(=O)OC7)CC[C@]65O)C4)O[C@@H]3C)O[C@@H]2C)C[C@H](O)[C@@H]1O [DIGOXIN]
